Assay results taken from ChEMBL document CHEMBL1142354, “Synthesis and biological evaluation of (hetero)arylmethyloxy- and arylmethylamine-phenyl derivatives as potent P-glycoprotein modulating agents” (J Med Chem, 2008).

Amino acid sequences for entries named in this document (tags omitted).
UniProt P08183, whole entry: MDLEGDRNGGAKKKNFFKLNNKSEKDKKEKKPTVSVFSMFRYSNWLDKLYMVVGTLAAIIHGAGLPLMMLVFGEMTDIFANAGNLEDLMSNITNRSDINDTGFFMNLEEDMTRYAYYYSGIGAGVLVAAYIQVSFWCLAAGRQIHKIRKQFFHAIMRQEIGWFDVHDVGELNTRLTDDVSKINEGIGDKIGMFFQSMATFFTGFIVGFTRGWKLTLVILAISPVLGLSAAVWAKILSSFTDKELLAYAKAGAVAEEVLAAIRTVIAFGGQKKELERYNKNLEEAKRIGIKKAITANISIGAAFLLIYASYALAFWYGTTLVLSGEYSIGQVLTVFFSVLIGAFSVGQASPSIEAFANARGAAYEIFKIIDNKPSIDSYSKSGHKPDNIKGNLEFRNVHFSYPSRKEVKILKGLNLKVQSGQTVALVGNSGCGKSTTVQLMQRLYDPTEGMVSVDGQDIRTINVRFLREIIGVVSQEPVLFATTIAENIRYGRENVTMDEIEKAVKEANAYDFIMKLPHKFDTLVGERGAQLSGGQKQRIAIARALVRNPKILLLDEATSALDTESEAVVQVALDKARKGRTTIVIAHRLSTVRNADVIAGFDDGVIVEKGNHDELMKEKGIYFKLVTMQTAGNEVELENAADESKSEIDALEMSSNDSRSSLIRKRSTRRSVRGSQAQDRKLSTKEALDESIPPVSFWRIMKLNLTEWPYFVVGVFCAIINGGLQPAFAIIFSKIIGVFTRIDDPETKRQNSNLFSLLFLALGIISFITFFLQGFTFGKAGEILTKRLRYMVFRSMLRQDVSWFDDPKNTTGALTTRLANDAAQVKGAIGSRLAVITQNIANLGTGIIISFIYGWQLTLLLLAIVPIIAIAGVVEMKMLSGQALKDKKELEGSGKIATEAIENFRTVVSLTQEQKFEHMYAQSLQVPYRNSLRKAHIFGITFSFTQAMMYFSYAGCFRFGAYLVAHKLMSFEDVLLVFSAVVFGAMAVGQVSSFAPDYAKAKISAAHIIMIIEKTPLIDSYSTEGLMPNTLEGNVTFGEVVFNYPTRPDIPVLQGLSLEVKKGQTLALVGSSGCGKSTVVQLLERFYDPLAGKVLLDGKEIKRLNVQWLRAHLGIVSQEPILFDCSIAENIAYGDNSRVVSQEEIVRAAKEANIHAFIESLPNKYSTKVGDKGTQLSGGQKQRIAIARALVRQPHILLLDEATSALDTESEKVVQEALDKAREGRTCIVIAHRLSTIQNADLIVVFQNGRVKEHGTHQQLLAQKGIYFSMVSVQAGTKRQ

Target: ATP-dependent translocase ABCB1 (Homo sapiens, UniProt P08183)
Test: Inhibition of human P-glycoprotein mediated [3H]vinblastine transport in human Caco-2 cells
Assay type: cell-based

**Q.** With `COc1cccc(CCc2ccccc2OCc2cccc(OC)c2OC)c1` as the molecule, how does the EC50 read?
**A.** 0.25 µM
